ChEMBL document CHEMBL5210121, “Affinity On-target Cellular Literature for EUbOPEN Chemogenomics Library wave 3” (2023)

The chains behind the UniProt entries cited, without tags or fusion partners. Where a name states a change or a piece, a line headed by the entry shows the natural chain unless it says otherwise.
UniProt P11229: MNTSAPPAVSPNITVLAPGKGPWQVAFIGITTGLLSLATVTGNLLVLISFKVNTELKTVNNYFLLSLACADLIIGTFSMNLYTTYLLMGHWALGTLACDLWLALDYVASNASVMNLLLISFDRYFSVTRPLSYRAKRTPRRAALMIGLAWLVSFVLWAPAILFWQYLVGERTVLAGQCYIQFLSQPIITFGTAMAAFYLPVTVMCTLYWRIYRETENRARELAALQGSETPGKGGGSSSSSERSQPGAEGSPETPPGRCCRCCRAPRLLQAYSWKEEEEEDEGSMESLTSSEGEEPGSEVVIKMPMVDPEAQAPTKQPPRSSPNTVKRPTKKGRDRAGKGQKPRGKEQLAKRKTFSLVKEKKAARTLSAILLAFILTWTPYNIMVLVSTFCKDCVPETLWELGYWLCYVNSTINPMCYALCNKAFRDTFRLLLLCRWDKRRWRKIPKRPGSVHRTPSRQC
UniProt O60678: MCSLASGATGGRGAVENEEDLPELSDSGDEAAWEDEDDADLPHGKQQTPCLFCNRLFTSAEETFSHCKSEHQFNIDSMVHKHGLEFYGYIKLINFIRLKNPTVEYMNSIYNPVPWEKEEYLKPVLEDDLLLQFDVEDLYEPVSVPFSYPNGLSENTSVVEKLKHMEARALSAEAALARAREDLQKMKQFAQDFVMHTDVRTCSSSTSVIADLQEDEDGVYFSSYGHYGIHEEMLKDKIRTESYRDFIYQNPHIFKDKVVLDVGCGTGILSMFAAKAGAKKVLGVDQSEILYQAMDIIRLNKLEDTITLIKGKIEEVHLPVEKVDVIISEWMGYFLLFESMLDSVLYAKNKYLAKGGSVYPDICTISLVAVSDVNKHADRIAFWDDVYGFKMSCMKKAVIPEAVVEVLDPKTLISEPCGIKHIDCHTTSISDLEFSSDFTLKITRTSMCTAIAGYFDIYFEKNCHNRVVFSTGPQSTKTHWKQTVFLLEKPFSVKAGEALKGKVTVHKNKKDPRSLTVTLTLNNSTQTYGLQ

Assays:
[1] = target: Muscarinic acetylcholine receptor M1 (Homo sapiens) (UniProt P11229); conditions: Affinity On-target Cellular Source Knowledge https://pubs.acs.org/doi/10.1021/jm200400m,https://pubs.acs.org/doi/10.1021/ml300280g, https://www.sgc-ffm.uni-frankfurt.de/#!specificprobeoverview/MSD-M1PAM
[2] = target: Protein arginine N-methyltransferase 3 (Homo sapiens, UniProt O60678)

Potentiation inflection point [1] | IC50 [2] | SMILES
> 10 µM |  | N#CC1(c2ccccn2)CCN(Cc2cc(C(=O)N3CCCC3)c(=O)n3ccccc23)CC1
 | 1000 nM | CC(C)Oc1ccc(-c2c[nH]cc2CN(C)CCN)cc1
